# According to PubChem BioAssay AID951 (NMMLSC, 2007):
# Amino acid sequences for entries named in this document (tags omitted).
# UniProt Q9HD36, whole entry: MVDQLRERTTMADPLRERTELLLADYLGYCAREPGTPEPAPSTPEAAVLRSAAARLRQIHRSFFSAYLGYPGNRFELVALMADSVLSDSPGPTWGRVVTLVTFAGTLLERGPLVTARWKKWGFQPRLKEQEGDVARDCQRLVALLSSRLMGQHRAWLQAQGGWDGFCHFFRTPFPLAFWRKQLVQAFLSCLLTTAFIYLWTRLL
# The list shows a part of the results, in another mix than the full data. Some of these compounds have results that are not shown, active ones among them. Active and inactive are the calls of the source. No stated cut-off is given here; in the data, active means inhibition above about 40%.
# Target: Bcl-2-like protein 10 (Homo sapiens) (UniProt Q9HD36)
# Test: Bcl-B and Bim peptide interaction disruptors – biochemical, multiplexed, human Bcl-2 family, primary screen (AID 951);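 further: 0% = tracer peptide without compound and 100% = reference inhibitor peptide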
# Settings: bead-based flow cytometry, Bim peptide-Bcl-B binding; at 10 µM; hits give high values
row,SMILES,inhibition
1,CN(C)c1cccc(C(=O)NCC2(N(C)C)CCCCC2)c1,inactive: -8%
2,O=C(OC1CN2CCC1CC2)C(CO)(c1ccccc1)c1ccccc1 (centres undefined),inactive: -10%
3,COc1cccc(C(=O)NCC2(N3CCCCC3)CCCCC2)c1,inactive: -2%
4,CCN1CCCC(OC(=O)C2(O)c3ccccc3C=Cc3ccccc32)C1 (centres undefined),inactive: -8%
5,C=CCN1CCN(CCOC(=O)C(O)(c2ccccc2)c2ccccc2)CC1,inactive: 1%
6,CN(C)C1CCCC1OC(=O)C(O)(c1ccccc1)c1ccccc1 (centres undefined),inactive: -10%
7,Cc1ccccc1C(=O)NCC1(N2CCCCC2)CCCCC1,inactive: 2%
8,CC(C)N1C(=O)CC2(CCN(CCOC(=O)C(O)(c3ccccc3)c3ccccc3)CC2)C1=O,inactive: -1%
9,O=C(NCC1(N2CCCCC2)CCCCC1)c1cc([N+](=O)[O-])ccc1Cl,inactive: 0%
